# Literature values in patent US10946071B2, “Combination of ibudilast and interferon-beta and methods of using same” (MediciNova, Inc., priority 2018, dated 2021).
# Tested on: secondary progressive multiple sclerosis patients
# Settings: cited from earlier work
Molecule,"prevention of development of permanent physical disability (recombinant interferon-beta, SPMS patients, Filippini et al., Cochrane 2012)","efficacy in clinical trials (EU SPMS, NA SPMS, SPECTRIMS, IMPACT) (secondary progressive multiple sclerosis patients, review by Jakimovski et al.)","natural history of lesion development (chronic black holes) (patients with SPMS, Traboulsee et al. 2017)"
"interferon-beta: polypeptide, normally produced by fibroblasts, that has antiviral and antiproliferative effects; e.g. Avonex, Betaseron, Extavia, Rebif, Plegridy (protein, UniProt P01574 22-187, looked up) Interferon beta: MSYNLLGFLQRSSNFQCQKLLWQLNGRLEYCLKDRMNFDIPEEIKQLQQFQKEDAALTIYEMLQNIFAIFRQDSSSTGWNETIVENLLANVYHQINHLKTVLEEKLEKEDFTRGKLMSSLHLKRYYGRILHYLKAKEYSHCAWTIVRVEILRNFYFINRLTGYLRN",did not prevent the development of permanent physical disability,failed to be efficacious,
"interferon-beta-1a: therapeutic form of interferon-beta produced in mammalian cells (Avonex, Rebif) (protein, UniProt P01574 22-187, looked up, interferon beta-1a) Interferon beta: MSYNLLGFLQRSSNFQCQKLLWQLNGRLEYCLKDRMNFDIPEEIKQLQQFQKEDAALTIYEMLQNIFAIFRQDSSSTGWNETIVENLLANVYHQINHLKTVLEEKLEKEDFTRGKLMSSLHLKRYYGRILHYLKAKEYSHCAWTIVRVEILRNFYFINRLTGYLRN",,,appears to be unaffected
